# Test system: retina
# Assay: Retinal penetration of FAM-labeled Nuc1 after intravitreal injection
# Experimental: Intravitreal and subretinal injections: Mice were anesthetized by injecting intraperitoneally a cocktail mixture containing Ketamine (100 mg/kg, Phoenix™, St Joseph, Mo.) and Xylazine (10 mg/kg, Lloyed, Shenandoah, Iowa) followed by topical application of 0.5% proparacaine hydrochloride (Akorn Inc., Lake Forest, Ill., USA) for topical analgesia to the cornea. Mice were kept warm during anesthesia. lntravitreal and subretinal injections were performed using a 32-gauge needle and a 5μI glass syringe, as previously described (Cashman et al., 2015). […] Four hours post injection (as indicated), eyes were enucleated and fixed in 4% paraformaldehyde. […] Retinal cryosections were taken using a Micron 550 cryostat.
# Four hours post injection, eyes of these mice were enucleated and fixed in 4% paraformaldehyde. Retinal cryosections were generated using a Micron 550 cryostat and sections were imaged using a fluorescent microscope.
sequence,measurement,value
ASIKVAVSAGGDKPRR [Nuc1],penetration into the retina compared with previously described retinal penetrating peptides,substantially superior to any of our previously described retinal penetrating peptides including POD

# From patent publication US11713337B2, “Peptide, compositions and method for delivery of agents into cells and tissues” (priority 2019, dated 2023)
